This note sets out measurements from patent US12428446B2, “Peptide compound or pharmaceutically acceptable salt thereof” (Eyebio Korea, priority 2019, dated 2025).

The nature of the series: Evaluation of dissolution stability (content change on storage in dissolved state). Type of series: physicochemical. Conditions: 1 mg/1 ml dissolved state, 40° C. and RH 75%.

For the substance “4-methylene-Pro-Gly-Gln-Asp-Gly [Example 44]”, the “Day 1 content (%)” value (day 1) turned out to be 89.07%. The “Day 3 content (%)” value (day 3) is listed as 78.54%. Also, for the setting “day 7”, the “Day 7 content (%)” value is 56.03%. In addition, the “Initial content (%)” value (initial) came to 99.11%.
